Measurements reported in patent US10098974B2, “Catalytic radiofluorination” (priority 2004, dated 2018).

Legend:
[1] = system: C6-BAG glioma; test: Biodistribution of TPPI in rats implanted with C6-BAG glioma
[2] = Biodistribution of TPPI in rats

Work on “[I-125]-p-iodophenyltriphenylphosponium nitrate” yielded a tumor-to-brain ratio ([1]; 60 minutes) of 40, a tumor-to-brain ratio ([1]; 120 minutes) of 17 and a tumor-to-brain ratio ([1]; 240 minutes) of 44. For the same substance, the “washout from the tumor” value ([1]; 240 minutes) was “no washout”, the Tumor-to-blood ratio ([1]; at all times (60, 120, 240 minutes)) was 12 and the Heart activity ([2]; rats, 5, 30 and 60 minutes) was “over 0.7 % dose per gram”. For the same substance, the Heart-to-lung ratio ([2]; rats, 5 minutes) was 0.96, the heart-to-blood ratio ([2]; rats, 5 minutes) was 2.9 and the Heart-to-lung ratio ([2]; rats, 30 minutes) was 1.62. It also gave a heart-to-blood ratio ([2]; rats, 30 minutes) of 8.3, a Heart-to-lung ratio ([2]; rats, 60 minutes) of 1.5 and a heart-to-blood ratio ([2]; rats, 60 minutes) of 12.1. The “retention of activity in the heart” value ([2]; rats, period of 60 min) was “remained constant”.
